Test system: PC-3 cells
Test: mouse PC-3 prostate xenograft model, subcutaneous tumor burden
Format: in vivo
Conditions: PC-3 xenograft (Example 5); continuous doses 10.6 mg/kg/day, 25 days; versus vehicle
Excerpt: The results of this experiment are summarized below.

For CC1=C2C[C@H]3[C@@H](CC=C4C[C@@H](O)CC[C@@]43C)[C@@H]2CC[C@]12O[C@@H]1C[C@H](C)CN[C@H]1[C@H]2C [Cyclopamine, reference compound], the “growth of the tumors” value was “significantly reduced”.

— patent US20110034498A1, “DOSING REGIMENS FOR THE TREATMENT OF CANCER” (priority 2006, published 2011)
